Laboratory results: ChEMBL document CHEMBL1127444, “Aza-tricyclic substance P antagonists” (J Med Chem, 1994)

The chains behind the UniProt entries cited, without tags or fusion partners.
UniProt P25103, whole entry: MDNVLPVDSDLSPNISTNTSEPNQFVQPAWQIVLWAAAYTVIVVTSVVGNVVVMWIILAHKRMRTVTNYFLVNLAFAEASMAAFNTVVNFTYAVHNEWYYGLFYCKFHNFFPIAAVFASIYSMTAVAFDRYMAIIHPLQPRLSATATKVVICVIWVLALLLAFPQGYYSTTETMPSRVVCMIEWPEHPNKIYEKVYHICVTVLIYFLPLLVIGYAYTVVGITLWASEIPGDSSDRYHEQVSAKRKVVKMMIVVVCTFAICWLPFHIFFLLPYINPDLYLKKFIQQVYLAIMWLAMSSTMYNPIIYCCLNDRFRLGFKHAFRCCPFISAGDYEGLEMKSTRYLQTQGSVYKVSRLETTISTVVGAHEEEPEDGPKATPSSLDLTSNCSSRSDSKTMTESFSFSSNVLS

Target: Substance-P receptor (Homo sapiens, UniProt P25103)
Assay: Tested in vitro for the binding affinity towards NK1 receptor in human IM-9 cells using [125I]-labeled bolton-hunter substance P as ligand
Type: cell-based
Outline: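 IC50 from six-point concentration–response curves, each concentration in duplicate. Mean ± SEM of three separate experiments.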

Structure (SMILES) | IC50 [nM]
COc1ccccc1CN[C@H]1C2C3CCCC2CN(C3)[C@H]1C(c1ccccc1)c1ccccc1 | 3.3
COc1ccccc1CNC1C2CC3CCCC(C2)N3[C@H]1C(c1ccccc1)c1ccccc1 (some centres not stated) | 4.1
